Melting point values, as collected for the OPERA models

Melting points are in °C.
Cells with "–" have no entry in this list.
The databases behind each value are named after "via".

| SMILES | name | melting point (°C) | via |
|---|---|---|---|
| Clc1ccc(-c2ccc(Cl)c(Cl)c2Cl)c(Cl)c1Cl | 2,2',3,3',4,4'-Hexachlorobiphenyl | 152 | QSARDB |
| Cc1cc(NC(=O)CCl)on1 | 2-Chloro-N-(3-methyl-1,2-oxazol-5-yl)acetamide | 107 | OCHEM |
| C[N+](C)(C)Cc1ccccc1.[Br-] | N,N,N-Trimethyl(phenyl)methanaminium bromide | 231 | OCHEM |
| Cn1cnnc1C1CCNCC1 | 4-(4-Methyl-4H-1,2,4-triazol-3-yl)piperidine | 182 | OCHEM |
| C=CCCC#N | 4-Pentenenitrile | -48.5 | OFMPub |
| CN(C)[P+](Cc1ccccc1)(N(C)C)N(C)C.[Cl-] | Benzyltris(dimethylaminato)phosphorus(1+) chloride | 172.5 | eChemPortal |
| C=CC(=O)N(CC)CC | N,N-Diethylacrylamide | -98.35 | eChemPortal |
| Cn1ccc(C(=O)CCl)c1 | 2-Chloro-1-(1-methyl-1H-pyrrol-3-yl)ethan-1-one | 50 | OCHEM |
| O=C(O)C(Br)C(Br)C(=O)O (configuration not stated) | 2,3-Dibromosuccinic acid | 167 | OCHEM |
| CC(Br)C(=O)c1ccc(Cl)cc1 (configuration not stated) | 2-bromo-1-(4-chlorophenyl)propan-1-one | 69 | OCHEM |
| O=C1NC(=O)C2(CCCCC2)C(=O)N1 | 2,4-Diazaspiro(5.5)undecane-1,3,5-trione | 288 | OCHEM |
| COc1ccc(CN2CCNCC2)cc1OC | 1-(3,4-dimethoxybenzyl)piperazine | 33.5 | OCHEM |
| c1ccc2sc(C3CCNCC3)nc2c1 | 2-(4-piperidinyl)-1,3-benzothiazole | 128 | OCHEM |
| Cc1cc(C=O)c(C)n1C1CC1 | 1-Cyclopropyl-2,5-dimethyl-1H-pyrrole-3-carbaldehyde | 73 | OCHEM |
| CCCC1COC(Cn2cncn2)(c2ccc(Cl)cc2Cl)O1 (configuration not stated) | Propiconazole | 1 | OCHEM |
| Cc1cc(C(=O)O)c(C)n1Cc1ccccc1 | 1-benzyl-2,5-dimethyl-1H-pyrrole-3-carboxylic acid | 198 | OCHEM |
| COc1ccc(F)cc1CCl | 2-(chloromethyl)-4-fluoro-1-methoxybenzene | 52.5 | OCHEM |
| CCCn1c(C)cc(C=O)c1C | 2,5-Dimethyl-1-propyl-1H-pyrrole-3-carbaldehyde | 53 | OCHEM |
| Cc1ccc(C(=O)CCl)cc1C | 2-chloro-1-(3,4-dimethylphenyl)ethanone | 52 | OCHEM |
| O=c1c2ccccc2nc(Cl)n1-c1ccccc1 | 2-chloro-3-phenylquinazolin-4(3H)-one | 128 | OCHEM |
| N[C@@H](C[SeH])C(=O)O | L-Selenocysteine | 144.5 | PubChem |
| CCCNC(=O)NC(=O)CCl | 2-Chloro-N-(propylcarbamoyl)acetamide | 120 | OCHEM |
| C=CCC1(C(C)C#CCC)C(=O)N=C([O-])N(C)C1=O.[Na+] (configuration not stated) | Sodium methohexital | 61.94 | PubChem |
| c1ccc(C(c2ccccc2)C2CCCCN2)cc1 (configuration not stated) | 2-(Diphenylmethyl)piperidine | 66 | PubChem |
| CNC(=O)Oc1ccccc1Cl | CPMC | 90.5 | PubChem |
| NCCc1nc2ccccc2[nH]1 | 2-(1H-Benzimidazol-2-yl)ethan-1-amine | 222 | OCHEM |
| CCC(=O)c1ccc(OC)c(OC)c1 | 1-Propanone, 1-(3,4-dimethoxyphenyl)- | 62 | OCHEM |
| ClC(Cl)=C(c1ccc(Cl)cc1)c1ccccc1Cl | o,p'-DDE | 80 | QSARDB |
| O=C1N=C(O)C2(CCCCCC2)C(O)=N1 | 2,4-Diazaspiro[5.6]dodecane-1,3,5-trione | 266 | OCHEM |
| Clc1ccc(Cl)c(C(Cl)(Cl)Cl)n1 | 3,6-Dichloro-2-(trichloromethyl)pyridine | 47.5 | OFMPub |
| O=C1N=C(O)C2(CCCCCCC2)C(O)=N1 | 2,4-Diazaspiro[5.7]tridecane-1,3,5-trione | 228 | OCHEM |
| N=C(N)NN.O=S(=O)(O)O | – | 125.8 | eChemPortal |
| CC(Cl)C(=O)c1ccc(Cl)cc1 (configuration not stated) | 2-chloro-1-(4-chlorophenyl)propan-1-one | 56.92 | OCHEM, eChemPortal |
| NCC(O)c1ccccc1F (configuration not stated) | 2-Amino-1-(2-fluorophenyl)ethan-1-ol | 63 | OCHEM |
| CN(CCCCCC(=O)O)S(=O)(=O)c1ccccc1.OCCN(CCO)CCO | – | 35.9 | eChemPortal |
| CCC(=O)C(CC(C)N(C)C)(c1ccccc1)c1ccccc1.Cl (configuration not stated) | Methadone hydrochloride | 235 | OCHEM |
| O=c1cc(CCl)nc2sccn12 | 7-(chloromethyl)-5H-[1,3]thiazolo[3,2-a]pyrimidin-5-one | 181 | OCHEM |
| O=C1NC(=O)C(O)(O)C(=O)N1 | – | 240 | PubChem |
| CCNC(C)Cc1ccc(OC)cc1 (configuration not stated) | N-Ethyl-p-methoxy-alpha-methylphenethylamine | -10.33 | eChemPortal |
| NC(=O)OCC(F)(F)F | 2,2,2-Trifluoroethyl carbamate | 43 | OCHEM |

7 of these entries, quoted again:

| SMILES | name | melting point (°C) | via |
|---|---|---|---|
| NC(=O)OCC(F)(F)F | 2,2,2-Trifluoroethyl carbamate | 43 | OCHEM |
| CCCn1c(C)cc(C=O)c1C | 2,5-Dimethyl-1-propyl-1H-pyrrole-3-carbaldehyde | 53 | OCHEM |
| NCC(O)c1ccccc1F (configuration not stated) | 2-Amino-1-(2-fluorophenyl)ethan-1-ol | 63 | OCHEM |
| O=c1cc(CCl)nc2sccn12 | 7-(chloromethyl)-5H-[1,3]thiazolo[3,2-a]pyrimidin-5-one | 181 | OCHEM |
| C=CCC1(C(C)C#CCC)C(=O)N=C([O-])N(C)C1=O.[Na+] (configuration not stated) | Sodium methohexital | 61.94 | PubChem |
| Cc1cc(C(=O)O)c(C)n1Cc1ccccc1 | 1-benzyl-2,5-dimethyl-1H-pyrrole-3-carboxylic acid | 198 | OCHEM |
| CCC(=O)c1ccc(OC)c(OC)c1 | 1-Propanone, 1-(3,4-dimethoxyphenyl)- | 62 | OCHEM |

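The OPERA project collected these measurements from public sources as training and test data for property models. The files give a single number for a compound and property, which may rest on several reports. How each value was measured is not recorded, so precision varies. A value may pool stereoisomers or salt forms, and the file does not say which form was measured. Some entries may be limits or estimates that an upstream database listed as plain numbers.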

Values as listed in the OPERA 2.9 repository of K. Mansouri.